The assay deals with T1, CD40L (UniProt P29965 1-261).
T1 sequence (looked up): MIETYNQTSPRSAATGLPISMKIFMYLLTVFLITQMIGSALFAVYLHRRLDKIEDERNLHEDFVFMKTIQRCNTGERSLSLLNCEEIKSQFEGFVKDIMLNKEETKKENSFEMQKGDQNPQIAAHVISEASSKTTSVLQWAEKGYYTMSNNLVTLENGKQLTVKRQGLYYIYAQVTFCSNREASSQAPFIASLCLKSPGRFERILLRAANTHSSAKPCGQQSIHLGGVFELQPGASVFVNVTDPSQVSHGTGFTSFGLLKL
Briefly: proximity labelling.

This is an account of results in doi:10.1101/2023.04.08.536099 (bioRxiv, 2023).

B1: CD40 (receptor, UniProt P25942 21-277, looked up)
chain: EPPTACREKQYLINSQCCSLCQPGQKLVSDCTEFTETECLPCGESEFLDTWNRETHCHQHKYCDPNLGLRVQQKGTSETDTICTCEEGWHCTSEACESCVLHRSCSPGFGVKQIATGVSDTICEPCPVGFFSNVSSAFEKCHPWTSCETKDLVVQQAGTNKTDVVCGPQDRLRALVVIPIIFGILFAILLVLVFIKKVAKKPTNKAPHPKQEPQEINFPDDLPGSNTAAPVQETLHGCQPVTQEDGKESRISVQERQ
With B1, the “labeling ratio (OF1 probe)” value worked out at 63.9% and the “labeling ratio (OF2 probe)” value was 50.3%.
